What was measured:
[1] = tested on: FaDu; test: In vitro cell growth inhibition, FaDu; format: cell-based, human; settings: 1 μM, 72 hours
[2] = biological target: FcγR IIIb (Homo sapiens, UniProt O75015); test: SPR binding of mAb and mAb-TPP to FcγRIIIb
Protocol: Specifically, each b1b2 domain of neuropilin-1 and -2 was diluted with 10 mM Na-acetate buffer (pH 4.0), and fixed onto CMS sensor chips (GE healthcare, USA) in about 1000 response units (RU). […] After bond and dissociation analysis, the regeneration of CMS chip was performed by streaming a buffer (20 Mm NaOH, 1 M NaCl, pH 10.0) at a stream velocity 30 μl/min for 1 minute.

[3] = tested on: FaDu; test: Inhibition of cancer cell growth in nude mice, FaDu; format: in vivo; settings: FaDu xenograft, 2.5 and 10 mg/kg intravenously 6 times every 3 days
Protocol: Also, in order to confirm whether such tendency actually affects inhibition of cancer cells, an experiment confirming the inhibition of cancer cell growth was performed in nude mice.

Cetuximab
cell growth inhibition [1]: about 30%
Association rate ka [2]: 5.10 ± 0.45 × 10^3 M^−1s^−1
Dissociation rate kd [2]: 4.20 ± 0.19 × 10^−2 S^−1
Kd ([2]; read-out: Binding affinity KD): 8.23 µM
inhibition of cancer cell growth (tumor volume) [3]: inhibited cancer cell growth
